# Molecular target: T1, Dihydrofolate reductase (Mycobacterium avium, UniProt O30463)
# T1 sequence (O30463 whole entry): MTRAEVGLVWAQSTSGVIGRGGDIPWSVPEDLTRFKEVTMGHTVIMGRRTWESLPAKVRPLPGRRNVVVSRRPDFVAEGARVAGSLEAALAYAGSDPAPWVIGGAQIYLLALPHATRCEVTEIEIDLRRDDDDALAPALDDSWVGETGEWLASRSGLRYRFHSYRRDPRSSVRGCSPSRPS
# Assay: Antimycobacterial activity against Mycobacterium avium complex dihydrofolate reductase (MAC DHFR)
structure (smiles),measurement,value
COCc1c(CNc2ccc(Cl)cc2)cnc2nc(N)nc(N)c12,IC50,1.5 µM

# Source: ChEMBL document CHEMBL1135401, “Pharmacophore mapping of a series of 2,4-diamino-5-deazapteridine inhibitors of Mycobacterium avium complex dihydrofolate reductase” (J Med Chem, 2002)
